According to US20150104520A1, “Nanoparticle Formulations in Biomarker Detection” (priority 2013, published 2015):

System: patients with epithelial ovarian cancer
Assay: Phase 2 randomized two-arm trial, IG-001 plus carboplatin vs paclitaxel plus carboplatin, 1st line
Conditions: patients with adverse events
Text: Phase II ovarian trial design: randomized, two-arm trial, primary advanced epithelial ovarian cancer consisting of 100 patients (50/each arm). […] The primary objective of the study was to determine the Composite Response by GCIG CA-125 Response and Response Evaluation Criteria in Solid Tumors (RECIST): based on non-inferiority study. […] The treatment regimen included 6 cycles of treatment with injection every three weeks and tumor screening after cycles 2, 4 and 6.

Paclitaxel + Carboplatin
AE Rate (%): 44 (91.67) n (%)
